# Experimental data from patent US8603518B2, “Hydroxybutyrate and poly-hydroxybutyrate as components of animal feed or feed additives” (Universiteit Gent, priority 2006, dated 2013).
# Test system: colon microbiota
# Assay type: cell-based, human
# Method: All incubations were performed in penicillin vials using fecal suspensions taken from the ascending vessel of the SHIME reactor running under normal feeding conditions. The feed matrix consisted of a carbohydrate-based medium containing arabinogalactan (1 g/L), pectin (2 g/L), xylan (1 g/L), starch (4.2 g/L), glucose (0.4 g/L), yeast extract (3 g/L), peptone (1 g/L), mucin (4 […]), KH2PO4 (5.3 g/L) and Na2HPO4 (1.4 g/L). […] All assays were performed in duplicate. […] 31 integrator (Thermo Separation Products, Wilrijk, Belgium). […] Microbial counts and SCFAs levels were determined as described above.
substance,measurement,value
poly-3-hydroxybutyrate [PHB],Microbial degradation (release of PHB degradation products),no microbial degradation occurred
